Source: EP0973746B1, “SUBSTITUTED 3-CYANO QUINOLINES” (Wyeth Holdings Corporation, priority 1997, dated 1998)

Sequences of proteins named here, by UniProt entry; tags and fusion partners are left off. Residues count along the entry.
UniProt P29317, 24-976, species assumed: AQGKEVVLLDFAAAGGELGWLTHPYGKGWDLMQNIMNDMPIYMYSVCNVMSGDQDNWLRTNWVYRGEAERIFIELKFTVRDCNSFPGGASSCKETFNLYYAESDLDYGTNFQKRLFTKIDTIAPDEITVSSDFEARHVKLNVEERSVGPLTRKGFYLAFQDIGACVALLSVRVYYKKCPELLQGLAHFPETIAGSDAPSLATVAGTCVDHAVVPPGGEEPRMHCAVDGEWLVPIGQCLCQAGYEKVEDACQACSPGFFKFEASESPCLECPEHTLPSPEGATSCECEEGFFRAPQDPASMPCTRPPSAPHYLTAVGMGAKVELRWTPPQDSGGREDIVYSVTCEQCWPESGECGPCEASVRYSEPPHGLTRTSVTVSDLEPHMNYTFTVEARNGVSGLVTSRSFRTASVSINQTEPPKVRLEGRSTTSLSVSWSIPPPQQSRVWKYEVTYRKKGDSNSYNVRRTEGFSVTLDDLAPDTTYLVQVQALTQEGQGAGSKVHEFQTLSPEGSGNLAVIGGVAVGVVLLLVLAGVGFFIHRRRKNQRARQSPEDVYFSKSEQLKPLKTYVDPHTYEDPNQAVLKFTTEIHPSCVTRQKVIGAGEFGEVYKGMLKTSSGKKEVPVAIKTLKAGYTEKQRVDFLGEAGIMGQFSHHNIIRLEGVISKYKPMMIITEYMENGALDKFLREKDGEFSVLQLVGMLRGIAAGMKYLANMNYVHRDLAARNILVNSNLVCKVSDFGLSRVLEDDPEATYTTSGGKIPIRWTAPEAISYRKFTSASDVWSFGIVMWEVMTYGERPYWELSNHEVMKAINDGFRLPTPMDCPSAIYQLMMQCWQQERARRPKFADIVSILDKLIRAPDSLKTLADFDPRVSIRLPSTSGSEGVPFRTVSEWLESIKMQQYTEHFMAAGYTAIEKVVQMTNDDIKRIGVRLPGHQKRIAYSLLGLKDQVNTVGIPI

Each compound was assayed against Epithelial Cell Kinase (ECK) (Homo sapiens, UniProt P29317) (assay: biochemical). Conditions: Eck IC50.

SMILES	IC50
COc1cc2ncc(C#N)c(Nc3ccc(C)c(O)c3)c2cc1OCCCN1CCOCC1 [Example 128]	> 44.6 µM

Same assay, conditions: Eck IC50, pH 7.2; nonradioactive format

SMILES	IC50
COc1cc2ncc(C#N)c(Nc3cccc(Br)c3)c2cc1N [Example 7, 6-Amino-4-[(3-bromophenyl)amino] -7-methoxy-3-quinolinecarbonitrile]	> 27.1 µM
CC#CC(=O)Nc1ccc2ncc(C#N)c(Nc3ccc(F)c(Cl)c3)c2c1 [Example 143, N-{4-[(3-Chloro-4-fluoro-phenyl)amino]-3-cyano-6-quinolinyl}-2-butynamide]	> 52.8 µM
N#Cc1cnc2ccc(N)cc2c1Nc1cccc(Cl)c1 [Example 136, 6-Amino-4-[(3-chlorophenyl)amino]-3-quinolinecarbonitrile]	> 67.9 µM
COc1cc2ncc(C#N)c(Nc3ccc(O)c(Cl)c3)c2cc1OC [Example 249, 4-(3-Chloro-4-hydroxy-phenylamino)-6,7-dimethoxy-quinoline-3-carbonitrile]	> 28.1 µM
N#Cc1cnc2ccc([N+](=O)[O-])cc2c1Nc1cccc(I)c1 [Example 131, 4-[(3-Iodophenyl)amino]-6-nitro-3-quinolinecarbonitrile]	> 58.8 µM
C#Cc1cccc(Nc2c(C#N)cnc3ccc(N)cc23)c1 [Example 167, 6-Amino-4-[(3-ethynylphenyl)amino]-3-quinolinecarbonitrile]	> 70.3 µM
N#Cc1cnc2ccc(N)cc2c1Nc1cccc(I)c1 [Example 130, 6-Amino-4-[(3-iodophenyl)amino]-3-quinolinecarbonitrile]	> 25.9 µM
COc1ccc2c(Nc3ccc(Cl)cc3F)c(C#N)cnc2c1 [Example 307, 4-(4-Chloro-2-fluorophenylamino)-7-methoxy-3-quinolinecarbonitrile]	> 61 µM
COc1cc2c(Nc3cc(O)c(Cl)cc3F)c(C#N)cnc2cc1OCCN(C)C [Example 86, 4-(4-Chloro-2-fluoro-5-hydroxy-phenylamino)-7-(2-dimethylamino-ethoxy)-6-methoxy-quinoline-3-carbonitrile]	> 46.4 µM
COc1cc2ncc(C#N)c(Nc3cccc(NC(C)=O)c3)c2cc1OC [Example 265, 4-(3-Acetamidophenylamino)-6,7-dimethoxy-3-quinolinecarbonitrile]	> 55.2 µM
CCCOc1cc2ncc(C#N)c(Nc3cccc(Br)c3)c2cc1OCCC [Example 303, 4-(3-Bromophenylamino)-6.7-di-n-propoxy-3-quinolinecarbonitrile]	> 22.7 µM
C=CC(=O)Nc1ccc2ncc(C#N)c(Nc3ccc(F)c(F)c3)c2c1 [Example 154, N-{3-Cyano-4-[(3,4-difluorophenyl)amino]-6-quinolinyl]-2-propenamide]	< 0.0571 µM
CCN(CC)CC#CC(=O)Nc1ccc2ncc(C#N)c(Nc3ccc(F)c(Cl)c3)c2c1 [Example 189, N-[4-[(3-Chloro-4-fluorophenyl)amino]-3-cyano-6-quinolinyl]-4-diethylamino-2-butynamide]	> 44.5 µM
C=CC(=O)Nc1cc2c(Nc3cccc(Br)c3)c(C#N)cnc2cc1OC [Example 9, N-[4-[(3-Bromophenyl)amino]-3-cyano-7-methoxy-6-quinolinyl]-2-propenamide]	> 47.2 µM
CCOc1cc2ncc(C#N)c(Nc3cccc(C(C)=O)c3)c2cc1OCC [Example 257, 4-(3-acetylphenylamino)-6,7-diethoxy-3-quinolinecarbonitrile]	> 53.3 µM
CCOc1cc2ncc(C#N)c(Nc3ccc(F)cc3)c2cc1OCC [Example 260, 4-(4-fluorophenylamino)-6,7-diethoxy-3-quinolinecarbonitrile]	> 28.5 µM
CC#CC(=O)Nc1cccc(Nc2c(C#N)cnc3cc(OC)c(OC)cc23)c1 [Example 266, 4-[3-(2-Butynoylamino)phenylamino]1-6,7-dimethoxy-3-quinolinecarbonitrile]	51.8 µM
COc1cc2ncc(C#N)c(Nc3ccc(F)c(Cl)c3)c2cc1N [Example 202, 6-Amino-4-(3-chloro-4-fluoro-phenylamino)-7-methoxy-quinoline-3-carbonitrile]	> 58.3 µM
COc1cc2ncc(C#N)c(Nc3cccc(Cl)c3)c2cc1OC [Example 41, 4-[(3-Chlorophenyl)amino]-6,7-dimethoxy-3-quinolinecarbonitrile]	> 58.9 µM
COCC=CC(=O)Nc1ccc2ncc(C#N)c(Nc3cccc(Br)c3)c2c1 [Example 65, 4-Methoxy-but-2-enoic acid [4-(3-bromo-phenylamino)-3-cyano-quinolin-6-yl]-amide]	> 22.9 µM
COc1cccc(Nc2c(C#N)cnc3ccc(NC(=O)C#CCN4CCCCC4)cc23)c1 [Example 140, N-{3-cyano-4-[(3-methoxyphenyl)amino]-6-quinolinyl}-4-piperidino-2-butynamide]	> 45.5 µM
Cc1cccc(Nc2c(C#N)cnc3ccc([N+](=O)[O-])cc23)c1 [Example 134]	> 32.9 µM
COCC#CC(=O)Nc1ccc2ncc(C#N)c(Nc3ccc(F)c(Cl)c3)c2c1 [Example 194, N-[4-[-(3-Chloro-4-fluorophenyl)amino]-3-cyano-6-quinolinyl]-4-methoxy-2-butynamide]	> 48.9 µM
COc1cc2ncc(C#N)c(Nc3ccc(Sc4ccccc4)c(Cl)c3)c2cc1OC [Example 255, 4-[3-Chloro-4-(phenylthio)phenylamino]-6,7-dimethoxy-3-quinolinecarbonitrile]	> 44.6 µM

SMILES	IC50
C#Cc1cccc(Nc2c(C#N)cnc3ccc(NC(=O)C=C)cc23)c1 [Example 165, N-{3-Cyano-4-[(3-ethynyphenyl)amino]-6-quinolinyl)-2-propenamide]	> 59.1 µM
COc1cccc2c(Nc3ccc(Cl)cc3F)c(C#N)cnc12 [Example 275, 4-(4-Chloro-2-fluoro-phenylamino)-8-methoxy-quinoline-3-carbonitrile]	> 61 µM
N#Cc1cccc(Nc2c(C#N)cnc3ccc([N+](=O)[O-])cc23)c1 [Example 163, 4-[(3-Cyanophenyl)amino]-6-nitro-3-quinolinecarbonitrile]	> 31.7 µM
C=CC(=O)Nc1ccc2ncc(C#N)c(Nc3ccc(F)c(Cl)c3)c2c1 [Example 144, N-{4-[(3-Chloro-4-fluorophenyl)amino]-3-cyano-6-quinolinyl}-2-propenamide]	> 54.5 µM
CN(C)Cc1cc([N+](=O)[O-])cc2c(Nc3cccc(Br)c3)c(C#N)cnc12 [Example 108, 4-[(3-Bromophenyl)amino]-8-dimethylaminomethyl-6-nitro-3-quinolinecarbonitrile]	> 23.5 µM
CCCN(CC#CC(=O)Nc1ccc2ncc(C#N)c(Nc3cccc(Br)c3)c2c1)CCC [Example 170]	11.9 µM
C#Cc1cccc(Nc2c(C#N)cnc3ccc([N+](=O)[O-])cc23)c1 [Example 168, 4-[(3-Ethynylphenyl)amino]-6-nitro-3-quinolinecarbonitrile]	> 31.8 µM
CC#CC(=O)Nc1ccc2ncc(C#N)c(Nc3cccc(OC)c3)c2c1 [Example 139, N-{3-Cyano-4-[(3-methoxyphenyl)amino]-6-quinolinyl}-2-butynamide]	> 56.1 µM
N#Cc1cnc2ccc([N+](=O)[O-])cc2c1Nc1ccc(F)c(F)c1 [Example 156, 4-[(3,4-Difluorophenyl)amino]-6-nitro-3-quinolinecarbonitrile]	> 30.6 µM
COc1cc2ncc(C#N)c(Nc3cccc(F)c3)c2cc1OC [Example 35, 4-[(3-Fluorophenyl)amino]-6,7-dimethoxy-3-quinolinecarbonitrile]	> 61.9 µM
COc1cc2ncc(C#N)c(Nc3ccc(F)c(Br)c3)c2cc1NC(=O)C=CCN1CCOCC1 [Example 175, N-{4-[(3-Bromo-4-fluorophenyl)amino]-3-cyano-7-methoxy-6-quinolinyl}-4-morpholino-2-butenamide]	> 37 µM
C=CC(=O)Nc1ccc2ncc(C#N)c(Nc3ccc(Br)cc3)c2c1 [Example 151, N-{4-[(4-Bromophenyl)amino]-3-cyano-6-quinolinyl} -2-propenamide]	> 50.9 µM
CCCCOc1cc2ncc(C#N)c(Nc3cccc(Br)c3)c2cc1OCCCC [Example 305, 4-(3-Bromophenylamino)-6,7-di-n-butoxy-3-quinolinecarbonitrile]	> 42.8 µM
COc1ccc(OC)c2c(Nc3cccc(N(C)C)c3)c(C#N)cnc12 [Example 242, 4-(3-Dimethylamino-phenylamino)-5,8-dimethoxy-quinoline-3-carbonitrile]	> 28.7 µM
COc1cc2ncc(C#N)c(Nc3ccc(F)c(Cl)c3)c2cc1OCCCN1CCOCC1 [Example 125]	42.5 µM
N#Cc1cnc2ccc(N)cc2c1Nc1cccc(Br)c1 [Example 14, 6-Amino-4-[(3-bromophenyl)amino]-3-quinolinecarbonitrile]	> 29.5 µM
C=CC(=O)Nc1ccc2ncc(C#N)c(Nc3cccc(OC)c3)c2c1 [Example 138, N-{3-Cyano-4-[(3-methoxyphenyl)amino]-6-quinolinyl}-2-propenamide]	> 58.1 µM
N#Cc1cnc2ccc([N+](=O)[O-])cc2c1Nc1ccc(Sc2ccccc2)c(Cl)c1 [Example 159, 4-[(3-Chloro-4-thiophenoxyphenyl)amino]-6-nitro-3-quinolinecarbonitrile]	> 23.1 µM
CCOc1cc2ncc(C#N)c(Nc3ccc(F)c(Cl)c3)c2cc1OCC [Example 256, 4-(3-Chloro-4-fluorophenylamino)-6,7-diethoxy-3-quinolinecarbonitrile]	> 51.8 µM
C=CC(=O)Nc1ccc2ncc(C#N)c(Nc3cccc(F)c3)c2c1 [Example 88, N-[3-Cyano-4-(3-fluorophenylamino)quinolin-6-yl]acrylamide]	> 60.2 µM
CC#CC(=O)Nc1ccc2ncc(C#N)c(Nc3ccc(Sc4ccccc4)c(Cl)c3)c2c1 [Example 157]	> 42.6 µM
C#Cc1cccc(Nc2c(C#N)cnc3ccc(NC(=O)C#CC)cc23)c1 [Example 164, N-{3-Cyano-4-[(3-ethynylphenyl)amino]-6-quinolinyl}-2-butynamide]	> 57.1 µM
COc1cccc2c(Nc3c(F)cc(F)cc3F)c(C#N)cnc12 [Example 280, 8-Methoxy-4-(2,4,6-trifluoro-phenylamino)-quinoline-3-carbonitrile]	> 30.4 µM
C#Cc1cccc(Nc2c(C#N)cnc3ccc(NC(=O)C#CCN4CCCCC4)cc23)c1 [Example 166, N-{3-cyano-4-[(3-ethynylphenyl)amino]-6-quinolinyl)-4-piperidino-2-butynamide]	> 46.1 µM
